# Experimental data as given in PubChem BioAssay AID425 (Sanford-Burnham Center for Chemical Genomics, 2006).
# Amino acid sequences for entries named in this document (tags omitted).
# UniProt Q64346, whole entry: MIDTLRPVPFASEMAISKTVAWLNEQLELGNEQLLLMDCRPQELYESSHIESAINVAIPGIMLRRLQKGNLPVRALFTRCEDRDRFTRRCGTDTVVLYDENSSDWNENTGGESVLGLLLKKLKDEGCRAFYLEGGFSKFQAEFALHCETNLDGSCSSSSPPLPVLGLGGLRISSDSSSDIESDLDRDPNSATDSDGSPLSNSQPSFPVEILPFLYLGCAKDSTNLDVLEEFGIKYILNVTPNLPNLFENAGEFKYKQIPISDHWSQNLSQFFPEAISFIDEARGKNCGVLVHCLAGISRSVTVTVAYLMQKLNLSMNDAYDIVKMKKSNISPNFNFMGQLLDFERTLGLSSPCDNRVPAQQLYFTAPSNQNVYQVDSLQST
# The list shows a part of the results, in another mix than the full data. Measured potencies and affinities stand elsewhere. Active and inactive are the calls of the source. Rule as the data show it: active = inhibition above about 50%; inactive = the rest.
# Biological target: Dual specificity protein phosphatase 6 (Rattus norvegicus) (UniProt Q64346)
# Experiment: inhibition of rat DUSP6 enzyme activity – biochemical, in vitro, primary screen (AID 425);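 also: plate controls were vehicle for no effect and reference inhibitor for full effect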
# Conditions: recombinant MKP-3 phosphatase activity, fluorescence; at 20 µM; stronger effect = higher value
row,SMILES,inhibition
1,COc1ccccc1OP(C)(=O)Nc1ccc(C)cc1 (stereo unspecified),inactive: -3.9%
